From EP3353259B1, “SILYL MODIFIED POLYMER SEALANT” (Strongbond B.V., priority 2015, dated 2017)

Assay: Stress test: degradation time at 150°C of the sealant with antioxidant after storage of the uncured sealant at 40°C
Experimental: All ingredients except the Tegokat are added to a Hauschild cup and mixed in a Hauschild mixer for 60 seconds. Than the catalyst is added and mixed for another 30 seconds. Additionally UV- and light stabilizers, pigments etc. may be added in the first or second step.
In fig.6 the degradation time in hours at 150°C is plotted versus the time in days prior to cure at 40°C. On the horizontal axis the time the sealant was stored at 40°C before cure in days is given, showing the storage stability of the anti-oxidant, and on the vertical axis the time in hours to degradation at 150°C, showing the effectiveness of the anti-oxidant after storage of the sealant. This test may be seen as a stress test for both storage stability of the sealant as subsequent oxidation stability. The line represents the present situation using Irganox 1135 commonly applied in the sealant.
In fig. 8 a similar test as in fig. 6 is performed with the above mentioned anti-oxidants.
At present samples have been tested of a commercial STP (or SMP) sealant containing Irganox 1035, Irganox 1330 and a mixture thereof. The total antioxidant content of all samples is 4 g/kg STP polymer. The samples are stored in an oven at 40°C. The degradation times are determined at 150°C as a function of storage time. Furthermore, tensile tests are performed directly and after dumbbells used in said tests are exposed to 100°C for 1000 hours. This is done on freshly prepared sealants and sealants that have been stored at 40°C for 4 weeks.

Styrenated Phenol [reference compound]
Relative decrease degradation time after 7days @ 40°C (after 7 days at 40°C relative to initial): 83%
Degradation time after 7 days @ 40°C (time to degradation at 150°C after storage of the sealant for 7 days at 40°C): 10 h
Initial degradation Time (time to degradation at 150°C, sealant not stored before cure): 12 h
